Results taken from BindingDB's records for PubMed 9694962 (Memorial Sloan-Kettering Cancer Center, 1998).
Where “and” joins values, the source holds several entries; their conditions need not be identical. Equal entries are not always repeated.

Chains of the proteins cited; added tags and fusions are not shown.
UniProt P42866, whole entry: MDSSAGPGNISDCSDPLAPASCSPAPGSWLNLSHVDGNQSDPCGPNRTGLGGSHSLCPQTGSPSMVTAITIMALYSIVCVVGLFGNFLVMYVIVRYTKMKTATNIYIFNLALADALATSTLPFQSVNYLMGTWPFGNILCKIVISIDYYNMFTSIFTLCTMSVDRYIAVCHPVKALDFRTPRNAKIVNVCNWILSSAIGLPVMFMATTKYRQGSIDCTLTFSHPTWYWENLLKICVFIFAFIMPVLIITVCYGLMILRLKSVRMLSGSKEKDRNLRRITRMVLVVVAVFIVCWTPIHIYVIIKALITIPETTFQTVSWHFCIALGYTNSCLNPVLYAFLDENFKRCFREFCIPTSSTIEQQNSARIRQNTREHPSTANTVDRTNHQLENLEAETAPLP

Target: Mu-type opioid receptor (Mus musculus, UniProt P42866)

For `CSCC[C@H](NC(=O)[C@H](Cc1ccccc1)NC(=O)CNC(=O)CNC(=O)[C@@H](N)Cc1ccc(O)cc1)C(=O)O` [2-[(S)-2-(2-{2-[(S)-2-Amino-3-(4-hydroxy-phenyl)-propionylamino]-acetylamino}-acetylamino)-1-oxo-3-phenyl-propylamino]-4-methylsulfanyl-butyric acid], the Ki was 1.28 nM and 1.21 nM.
